Laboratory results published in patent US20150344822A1, “Decontaminant and Process for Decontamination of Chemicals from Infrastructural Materials” (priority 2014, published 2015).
Where “and” joins values, the source holds several entries; their conditions need not be identical. Equal values may be shown once. Read-outs that look alike come from different tables or passages of the source.

Tests used:
rat = conditions: oral (rat); cited from earlier work
[1] = 4-6° C.; for Ave. Adhesion Coefficient: 7 days
[2] = 20-25° C.; for Ave. Adhesion Coefficient: 24 hours
[3] = for Aqueous concentration of mercury, 7-Day Adherence / Ave. Adhesion Coefficient: 7 days, 20-25° C.; for Aqueous concentration of mercury, 7-Day Adherence: initial 19530.00 mg/L
[4] = Task 1A: surface adherence of contaminants on pipe materials, 7 days at 20-25° C.; type: physicochemical; conditions: for Aqueous concentration of mercury, Conc. after 7-day / Ave. Adhesion Coefficient: 7 days, 20-25° C.; for Aqueous concentration of mercury, Conc. after 7-day: initial 22829.8 mg/L

Mevinphos
LD50 (rat): LD50 oral (rat) 3.7-6.1 mg/kg

Mercuric chloride [Mercury]
Aqueous concentration of mercury, 7-Day Adherence ([1]; Copper pipe, Mercury #1, initial 7737.5 mg/L): 0.7 mg/L and 1.1 mg/L | Aqueous concentration of mercury, 7-Day Adherence ([1]; Copper pipe, Mercury #2, initial 28800.0 mg/L): 5750.0 mg/L and 4880.0 mg/L | Aqueous concentration of mercury, 7-Day Adherence ([1]; DIW pipe, Mercury #2, initial 28800.0 mg/L): 20200.0 mg/L and 20500.0 mg/L | Ave. Adhesion Coefficient ([1]; Mercury^1 (initial 7737.5 mg/L) on Copper pipe): 6.58 L/m^2 | Ave. Adhesion Coefficient ([1]; Mercury^1 (initial 7737.5 mg/L) on DIW pipe): 16.30 L/m^2 | Ave. Adhesion Coefficient ([1]; Mercury^2 (initial 28800.0 mg/L) on Copper pipe): 5.45 L/m^2 | Ave. Adhesion Coefficient ([1]; Mercury^2 (initial 28800.0 mg/L) on DIW pipe): 5.62 L/m^2 | Aqueous concentration of mercury, 7-Day Adherence ([1]; PVC pipe, Mercury #1, initial 7737.5 mg/L): 7944.0 mg/L and 8238.0 mg/L | Aqueous concentration of mercury, 7-Day Adherence ([1]; PVC pipe, Mercury #2, initial 28800.0 mg/L): 28900.0 mg/L and 32000.0 mg/L | Aqueous concentration, Conc. after 24 hrs ([2]; Copper pipe, Mercury #1, initial 8171.5 mg/L): 1.5 mg/L and 1.7 mg/L | Aqueous concentration, Conc. after 24 hrs ([2]; Copper pipe, Mercury #2, initial 23950.0 mg/L): 10100.0 mg/L and 8180.0 mg/L | Aqueous concentration, Conc. after 24 hrs ([2]; DIW pipe, Mercury #1, initial 8171.5 mg/L): 5218.0 mg/L and 2874.2 mg/L | Aqueous concentration, Conc. after 24 hrs ([2]; DIW pipe, Mercury #2, initial 23950.0 mg/L): 15100.0 mg/L and 17900.0 mg/L | Ave. Adhesion Coefficient ([2]; Mercury^1 (initial 8171.5 mg/L) on Copper pipe): 6.61 L/m^2 | Ave. Adhesion Coefficient ([2]; Mercury^1 (initial 8171.5 mg/L) on DIW pipe): 7.47 L/m^2 | Ave. Adhesion Coefficient ([2]; Mercury^1 (initial 8171.5 mg/L) on PVC pipe): 0.39 L/m^2 | Ave. Adhesion Coefficient ([2]; Mercury^2 (initial 23950.0 mg/L) on Copper pipe): 4.15 L/m^2 | Ave. Adhesion Coefficient ([2]; Mercury^2 (initial 23950.0 mg/L) on DIW pipe): 5.41 L/m^2 | Aqueous concentration, Conc. after 24 hrs ([2]; PVC pipe, Mercury #1, initial 8171.5 mg/L): 7758.0 mg/L and 7627.0 mg/L | Aqueous concentration, Conc. after 24 hrs ([2]; PVC pipe, Mercury #2, initial 23950.0 mg/L): 24800.0 mg/L and 23100.0 mg/L | Aqueous concentration of mercury, 7-Day Adherence ([3]; COP (copper) pipe, before extraction with Pipe Klean): 2.21 mg/L and 3.21 mg/L | Aqueous concentration of mercury, 7-Day Adherence ([3]; COP (copper) pipe, before extraction with Simple Green): 2.08 mg/L and 1.84 mg/L | Aqueous concentration of mercury, 7-Day Adherence ([3]; COP (copper) pipe, before extraction with hypochlorite): 2.61 mg/L and 1.70 mg/L | Aqueous concentration of mercury, 7-Day Adherence ([3]; DIE pipe, before extraction with Pipe Klean): 21971.00 mg/L and 22035.00 mg/L | Aqueous concentration of mercury, 7-Day Adherence ([3]; DIE pipe, before extraction with Simple Green): 21626.00 mg/L and 21627.00 mg/L | Aqueous concentration of mercury, 7-Day Adherence ([3]; DIE pipe, before extraction with hypochlorite): 21288.00 mg/L and 21653.00 mg/L | adhesion coefficients of adhered mercury ([3]; DIW, Task 2, before application of decontaminants, range over groups): 10.4 to 13.9 L/m^2 | Aqueous concentration of mercury, 7-Day Adherence ([3]; PVC pipe, before extraction with Pipe Klean): 22578.00 mg/L and 22655.00 mg/L | Aqueous concentration of mercury, 7-Day Adherence ([3]; PVC pipe, before extraction with Simple Green): 19850.00 mg/L and 20343.00 mg/L | Aqueous concentration of mercury, 7-Day Adherence ([3]; PVC pipe, before extraction with hypochlorite): 19694.00 mg/L and 20876.00 mg/L | Ave. Adhesion Coefficient ([3]; mercury on Copper pipe, Before Application of Chlorine (300 mg/L)): 6.77 L/m^2 | Ave. Adhesion Coefficient ([3]; mercury on Copper pipe, Before Application of Pipe-Klean (1%)): 6.76 L/m^2 | Ave. Adhesion Coefficient ([3]; mercury on Copper pipe, Before Application of Simple Green (15%)): 6.72 L/m^2 | Ave. Adhesion Coefficient ([3]; mercury on DIW pipe, Before Application of Chlorine (300 mg/L)): 13.89 L/m^2 | Ave. Adhesion Coefficient ([3]; mercury on DIW pipe, Before Application of Pipe-Klean (1%)): 10.41 L/m^2 | Ave. Adhesion Coefficient ([3]; mercury on DIW pipe, Before Application of Simple Green (15%)): 13.49 L/m^2 | Aqueous concentration of mercury, Conc. after 7-day ([4]; ACI pipe): 3.5 to 8.2 mg/L | Aqueous concentration of mercury, Conc. after 7-day ([4]; Copper pipe): 41.4 mg/L and 41.6 mg/L | Aqueous concentration of mercury, Conc. after 7-day ([4]; Copper pipe, listed as mercury): about 41 mg/L | Aqueous concentration of mercury, Conc. after 7-day ([4]; DIO pipe): 13836.1 mg/L and 11619.6 mg/L | adherence of mercury ([4]; HDPE and PVC pipes): limited or no adherence | Aqueous concentration of mercury, Conc. after 7-day ([4]; HDPE pipe): 22610.1 mg/L and 22845.6 mg/L | reduction in aqueous concentration after contact with pipe ([4]; PVC and DIE pipes): Very limited or no reduction | Aqueous concentration of mercury, Conc. after 7-day ([4]; PVC pipe): 22995.3 mg/L and 22763.5 mg/L | Ave. Adhesion Coefficient ([4]; mercury on ACI pipe): 13.16 L/m^2 | Ave. Adhesion Coefficient ([4]; mercury on Copper pipe): 6.61 L/m^2 | Ave. Adhesion Coefficient ([4]; mercury on DIO pipe): 7.73 L/m^2 | Ave. Adhesion Coefficient ([4]; mercury on HDPE pipe): 0.03 L/m^2 | Ranking Based on Adherence of a Particular Chemical on Various Surfaces ([4]; ranking by adherence (mg/m^2) on the pipe surfaces): ACI > DIW > DIO > Copper > HDPE > PVC = DIE | LD50 (rat): 1 mg/kg
